Source: US20180177729A1, “G PROTEIN-COUPLED RECEPTORS INCORPORATED INTO REHYDRATED POLYMER VESICLES RETAIN FUNCTIONALITY” (UNIVERSITY OF SOUTHERN CALIFORNIA, priority 2016, published 2018)

Chains of the proteins cited; added tags and fusions are not shown.
UniProt P08908, whole entry: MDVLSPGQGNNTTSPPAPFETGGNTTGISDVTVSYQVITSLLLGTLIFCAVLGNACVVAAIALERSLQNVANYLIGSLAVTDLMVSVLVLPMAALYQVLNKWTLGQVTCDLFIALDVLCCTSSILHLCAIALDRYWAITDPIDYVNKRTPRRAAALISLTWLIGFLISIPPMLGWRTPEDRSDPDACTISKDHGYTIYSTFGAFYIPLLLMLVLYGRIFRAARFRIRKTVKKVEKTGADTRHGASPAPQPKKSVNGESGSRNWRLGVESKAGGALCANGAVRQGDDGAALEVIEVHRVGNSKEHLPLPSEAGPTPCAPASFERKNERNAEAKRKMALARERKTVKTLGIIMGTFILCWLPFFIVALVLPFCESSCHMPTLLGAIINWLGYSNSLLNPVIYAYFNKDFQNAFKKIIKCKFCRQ

Columns and labels:
[1] = target: T1, human serotonin 5-HT1A receptor (5-HT1AR) (Homo sapiens, UniProt P08908); assay: 5-HT1A activity assay via microplate reader (BODIPY-GTPγS unquenching) in pGUPs; assay type: biochemical
T1 construct: purchased Perkin Elmer

5-HT1AR = target: T2, 5-HT1AR (Homo sapiens, UniProt P08908); assay: 5-HT1AR membrane fragments diluted in solutions, lyophilized 24 hours, rehydrated and assessed for protein function; assay type: biochemical; conditions: for Rate (single exponential fit): diluted in 200 mM sucrose in PBS, after lyophilization; for protein function after lyophilization: 24 hours of lyophilization, rehydrated
T2 construct: purchased Perkin Elmer
Procedure: After 24 hours of lyophilization, samples were rehydrated and assessed for protein function.
Prepared and settled pGUPs were transferred to a flat bottom 96-well plate. Agonist 8-OH-DPAT was added to each well to a final concentration of 150 nM immediately prior to reading fluorescence. Control pGUPs were run without the addition of the agonist. Rehydration buffer with and without agonist and protein were read as positive and negative controls. Samples were read at physiological temperature (37° C.) every 5 minutes for twelve hours to ensure complete activity assessment. Fluorescence reading of BODIPY-GTPγS unquenching was done on a Biotek Synergy H4 Microplate Reader equipped with a xenon flash lamp. Excitation was set to 485/20 nm and emission at 528/20 nm at a read height of 7 mm.
Fluorescence microtiter results were collect and analyzed using JMP. Six separate observations were fitted and averaged to obtain a single curve with standard error mean values. Rates were fitted to the JMP Mechanistic Growth curve using a single exponential. Statistical analysis using a Tukey-Kramer pairwise comparison of means were done using JMP with a 95% confidence interval (α=0.05).

Rate (protein functional rate) ([1]; 14 μM antagonist in pGUPs, agonist 8-OH-DPAT, 37° C., 12 hours) [min⁻¹]	Effect on protein functional rate ([1]; antagonist in pGUPs)	Molecule	Rate (single exponential fit) (5-HT1AR; agonist-incubated (8-OH-DPAT))	Rate (single exponential fit) (5-HT1AR; control protein (no agonist))	protein function after lyophilization (5-HT1AR; diluted in Milli Q water)	protein function after lyophilization (5-HT1AR; diluted in PBS (pH 7.4))
0.085	reduce the protein functional rate	CSc1ccc2c(c1)C(N1CCN(C)CC1)Cc1ccccc1S2.O=C(O)/C=C\C(=O)O (stereo not drawn) [Methiothepin, methiothepin maleate]	–	–	–	–
–	–	5-HT1AR membrane fragments: Membrane fragments containing 5-HT1AR (Perkin Elmer), bound to spiperone and diluted in water, PBS or sucrose buffer	7.18±0.12 ×10^−2 min^−1	7.23±0.12 ×10^−2 min^−1	did not retain its function	did not retain its function
